One molecule from ChEMBL document CHEMBL4422617, “Recent advances in the discovery of small molecules targeting glioblastoma” (Eur J Med Chem, 2019) can be followed below.

The assay in a line: Antiproliferative activity against human U373 cells. Type of assay: functional, cell-based, U-373MG ATCC. To be noted: U373 MG.

As usually defined, the IC50 is the midpoint of a concentration-inhibition curve. In turn, `NS(=O)(=O)c1cccc2c1C(=O)c1cccc(O)c1C2=O` showed a 50% inhibitory concentration (IC50) of 0.86 µM.
